Screens: PubChem BioAssay, Broad Institute
Most compounds without a hit are left out; they make up all but 2.8% or so of the library.
esBAF inh – inhibitors of esBAF chromatin remodeling in mouse ES cells; reporter increase, % at 12.5 µM; actives 2% (n = 350,000); Bmi1-luciferase knock-in reporter, 24 h; 100% = twice the neutral-well signal; in the data active means activation above about 40%;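 further: a rise in the Bmi1 reporter signal indicates esBAF inhibition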
E-selectin induc – induces E-selectin expression in human endothelial cells; P16581; HUVEC E-selectin immunofluorescence imaging; normalized: neutral wells 0, TNF-alpha wells 100; activation, % at 7.58 µM; actives 0.37% (n = 260,000); AID 686992;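 active means mean E-selectin-positive cell signal at least 10% of the positive control, reached in at least 60% of replicates, without over 20% cell loss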
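System: HUVEC, human umbilical vein endothelial cells; quantity: 3,000 cells/well; buffer or medium: EGM-2 medium, gelatin-coated wells; dosing: single-point compound dose; detection: immunofluorescence imaging; evaluation: % PE-positive cells; benchmarks: TNF-alpha, DMSO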
PglD DTNB – blocks C. jejuni PglD acetyltransferase activity. purified PglD enzyme, DTNB colorimetric CoA detection. actives 0.098% (n = 360,000). inhibition, % at 12.5 µM; in the data active means inhibition above about 16%, passing the limit was not always enough
Yeast UUG start – modulators of yeast start codon fidelity, primary screen, whole organism, S. cerevisiae, single point, plate reader | AID 602363, 2012 | S. cerevisiae UUG-firefly luciferase reporter, luminescence/redox ratio | activity score, % at 18.7 µM | hit rate 0.13% among 350,000;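 active = replicate mean at a twofold rise or more, about +100% in these data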;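 also: firefly luciferase made from a UUG start codon reports start codon fidelity; reporter light over untreated wells divided by growth signal over untreated wells; some hits fall short of that in this replicate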
C2C12 statin – protects C2C12 myotubes from simvastatin toxicity; ATP luminescence, 48 h; scaled: DMSO 0, geranylgeraniol control 100; rescue of ATP level, % at 7.49 µM; actives 0.78% (n = 330,000);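 active means mean ATP rescue above about 67%, or every replicate alone reaching that limit, limit read from the data, passing the limit was not always enough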;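 further: myotubes were challenged with 10 µM simvastatin during compound exposure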
PGC1a acetyl inh – lowers PGC1a acetylation signal in U2OS cells | AlphaScreen anti-acetyl-lysine; with virally co-expressed GCN5 acetyltransferase | inhibition, % at 15.6 µM | actives 0.17% (n = 350,000) | AID 651687;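 active means every replicate shows inhibition of at least 40%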
Numbers stand for hits.

For CCC(=O)Nc1ccc2c(c1)C(=O)N(C)C[C@@H](OC)[C@@H](C)CN(Cc1ccccc1)[C@@H](C)CO2 the results were esBAF inh inactive, E-selectin induc inactive, PglD DTNB inactive, Yeast UUG start inactive, C2C12 statin inactive and PGC1a acetyl inh inactive.
Screening CO[C@H]1CN(C)C(=O)c2cc(NC(C)=O)ccc2OC[C@H](C)N(C(=O)Cc2cccnc2)C[C@H]1C returned esBAF inh inactive, E-selectin induc inactive, PglD DTNB inactive, Yeast UUG start inactive, C2C12 statin inactive and PGC1a acetyl inh inactive.
For O=C(Nc1cccc2ccccc12)C12CC3CC(C1)CC(n1cnc([N+](=O)[O-])n1)(C3)C2 the results were esBAF inh inactive, PglD DTNB inactive, Yeast UUG start inactive, C2C12 statin 69 and PGC1a acetyl inh inactive.
`Cc1cccc(NC(=O)c2cc[n+]([O-])cc2)c1C` gave esBAF inh inactive, E-selectin induc inactive, PglD DTNB inactive, Yeast UUG start inactive, C2C12 statin inactive and PGC1a acetyl inh inactive.
`Cc1ccccc1NC(=O)c1cc[n+]([O-])cc1` gave esBAF inh inactive, E-selectin induc 41, C2C12 statin inactive and PGC1a acetyl inh inactive.
For Cc1ccccc1NC(=O)CC(=O)Nc1ccccc1C the results were esBAF inh inactive, PglD DTNB inactive, Yeast UUG start inactive, C2C12 statin inactive and PGC1a acetyl inh inactive.
Screening Cc1ccccc1NC(=O)C(=O)Nc1ccccc1C returned esBAF inh 45, PglD DTNB inactive, Yeast UUG start inactive and C2C12 statin inactive.
`C[C@H](CO)N1C[C@H](C)[C@H](CN(C)C(=O)Nc2ccc(C(F)(F)F)cc2)Oc2c(NS(=O)(=O)c3ccccc3)cccc2C1=O` gave esBAF inh inactive, E-selectin induc inactive, PglD DTNB inactive, Yeast UUG start inactive, C2C12 statin inactive and PGC1a acetyl inh inactive.
Screening Cc1ccc(NC(=O)N2CCCCCC2)cc1C returned esBAF inh 52, E-selectin induc inactive, PglD DTNB inactive, Yeast UUG start inactive, C2C12 statin inactive and PGC1a acetyl inh inactive.
Cc1cccc(NC(=O)N2CCCCCC2)c1 was read as esBAF inh 43, PglD DTNB inactive, Yeast UUG start inactive, C2C12 statin inactive and PGC1a acetyl inh inactive.
`CC(C)NC(=O)Nc1ccc2c(c1)C(=O)N([C@H](C)CO)C[C@H](C)[C@H](CN(C)C(=O)CCC(F)(F)F)OCCCC[C@@H](C)O2` gave E-selectin induc inactive and PGC1a acetyl inh inactive.
COCCn1nnnc1CN(CCc1ccccc1)Cc1cc2cc(OC)ccc2[nH]c1=O was read as esBAF inh inactive, C2C12 statin inactive and PGC1a acetyl inh inactive.
For COCCn1nnnc1CN(CCc1ccc(OC)c(OC)c1)Cc1cc2ccc(C)cc2[nH]c1=O the results were esBAF inh inactive, C2C12 statin 103 and PGC1a acetyl inh inactive.
For COc1ccc2c(c1)CCc1c(C(=O)NCc3ccco3)noc1-2 the results were esBAF inh 42, C2C12 statin inactive and PGC1a acetyl inh inactive.
Screening COCCNC(=O)c1noc2c1CCc1cc(OC)ccc1-2 returned esBAF inh inactive, PglD DTNB inactive, Yeast UUG start inactive, C2C12 statin inactive and PGC1a acetyl inh inactive.
For COc1ccc2c(c1)CCc1c(C(=O)N(C)c3ccccc3)noc1-2 the results were esBAF inh 56, E-selectin induc inactive, PglD DTNB inactive, Yeast UUG start inactive, C2C12 statin inactive and PGC1a acetyl inh inactive.
Cc1ccc(S(=O)(=O)N[C@H]2C=C[C@H](CC(=O)N3CCC(Cc4ccccc4)CC3)O[C@H]2CO)cc1 was read as esBAF inh inactive, E-selectin induc inactive, PglD DTNB inactive, Yeast UUG start inactive, C2C12 statin inactive and PGC1a acetyl inh inactive.
CCCNC(=O)C[C@H]1CC[C@@H]2[C@@H](COc3ccc(NC(=O)c4cscn4)cc3C(=O)N2C)O1 was read as esBAF inh inactive, E-selectin induc inactive, PglD DTNB inactive, Yeast UUG start inactive, C2C12 statin inactive and PGC1a acetyl inh inactive.
C[C@@H]1CN([C@@H](C)CO)C(=O)c2cc(NC(=O)CCCN(C)C)ccc2O[C@@H](C)CCCCO[C@@H]1CN(C)Cc1ccc2c(c1)OCO2 was read as E-selectin induc inactive and PGC1a acetyl inh inactive.
O=C(Nc1ccc(-c2ccc(N3CCCCC3)nn2)cc1)c1ccco1 was read as esBAF inh 60, PglD DTNB inactive, Yeast UUG start inactive and C2C12 statin inactive.
For O=C(Nc1ccc(Br)cc1)c1ccco1 the results were esBAF inh 71, PglD DTNB inactive, Yeast UUG start inactive, C2C12 statin inactive and PGC1a acetyl inh inactive.
Screening O=C(Nc1nccs1)c1ccc(NC(=O)c2ccco2)cc1 returned esBAF inh 50, PglD DTNB inactive, Yeast UUG start inactive and C2C12 statin inactive.
Screening CC(NC(=O)c1ccco1)C(=O)Nc1nccs1 (configuration not stated) returned esBAF inh inactive, E-selectin induc inactive, PglD DTNB inactive, C2C12 statin inactive and PGC1a acetyl inh inactive.
For O=C(Nc1nnc(-c2cccs2)o1)c1ccco1 the results were esBAF inh inactive, E-selectin induc inactive, PglD DTNB inactive, Yeast UUG start inactive, C2C12 statin 69 and PGC1a acetyl inh inactive.
Screening C[C@@H]1CCCCO[C@@H](CN(C)C(=O)c2ccccc2)[C@H](C)CN([C@@H](C)CO)C(=O)c2cc(NC(=O)c3ccncc3)ccc2O1 returned esBAF inh inactive, E-selectin induc inactive, C2C12 statin inactive and PGC1a acetyl inh inactive.
O=C(Nc1ccc(NC(=O)c2ccco2)cc1)c1ccco1 was read as esBAF inh 46, E-selectin induc inactive, PglD DTNB inactive, Yeast UUG start inactive and C2C12 statin inactive.
CCOC(=O)Nc1ccc(C(=O)Oc2ccccc2)c(O)c1 was read as esBAF inh inactive, PglD DTNB inactive, Yeast UUG start inactive, C2C12 statin inactive and PGC1a acetyl inh inactive.
O=C(Nc1ccc(C(=O)Oc2ccccc2)c(O)c1)c1ccco1 was read as esBAF inh 57, PglD DTNB inactive, Yeast UUG start inactive, C2C12 statin inactive and PGC1a acetyl inh inactive.
`COc1ccc(NC(=O)CNC(=O)c2ccco2)cc1` gave esBAF inh inactive, E-selectin induc inactive, PglD DTNB inactive, Yeast UUG start inactive, C2C12 statin inactive and PGC1a acetyl inh inactive.
Cc1ccc(O)c(NC(=O)c2ccco2)c1 was read as esBAF inh inactive, PglD DTNB inactive, Yeast UUG start inactive, C2C12 statin inactive and PGC1a acetyl inh inactive.
Cc1cc(O)c(NC(=O)c2ccco2)cc1C was read as esBAF inh 47, PglD DTNB inactive, Yeast UUG start inactive, C2C12 statin inactive and PGC1a acetyl inh inactive.
Cc1ccc(NC(=O)CNC(=O)c2ccco2)cc1 was read as esBAF inh 42, E-selectin induc inactive, PglD DTNB inactive, Yeast UUG start inactive, C2C12 statin inactive and PGC1a acetyl inh inactive.
